B1: mouse secretagogin [mouse] / C-terminal SNARE domain of mouse SNAP-25 [mouse] (parent)
chain 1: MDNARRKTPARLDAACFWQIWQRFDKEEKGYIRETELDAFFDHLLAKSGTEDTLMEENVQKVKEQLMTSHNVSKEGRILMKELASMFLSEDENFLLFFRLETPLDNSVEFMQIWRKYDADSSGFISAAELCNFLRDLFLHHKKNISEAELEEYTSTMMKIFDKNKDGRLDLNDLARILALQENFLLQFKMDASSTEERKRDFEKIFAHYDVSKTGALEGPEVDGFVKDMMELVQPSISGVDLDKFREILLRHCDVNKDGKIQKSELALCLGLKINP
chain 2: DARENEMDENLEQVSGIIGNLRHMALDMGNEIDTQNRQIDRIMEKADSNKTRIDEANQRATKMLGSG

Variants of: B1
Test: ITC
Conditions: with C-terminal SNARE domain of mouse SNAP-25 [mouse]

Variant	Kd [nM]	ratio to parent
chain 1 L270A	42.6	1.95
chain 1 M229A	35.8	1.63
chain 1 M229E	201	9.18
chain 1 R198A	738	33.7
chain 1 V233A	27.3	1.25

From paper PMC11032447
